According to patent US20230235286A1, “MRNA TRANSFECTION OF IMMUNE CELLS” (Carisma Therapeutics Inc., priority 2020, published 2023):

Legend:
human macrophages [1] = test: Viability of macrophages electroporated or transfected with CAR mRNA (FACS); type: cell-based; conditions: day 7
Description: In exemplary methods of the present disclosure, fresh or thawed human macrophages were thawed and cultured at 37° C. overnight one day prior to electroporation. Macrophages were collected and washed with PBS. Viable cells were counted with the NC200. For macrophages transfected using a Neon Transfection System, 50 nM-300 nM of mRNA per 1e+6 macrophages were mixed on ice in electroporation buffer. Macrophages were electroporated with a Neon Transfection System or with a Maxcyte Electroporation system. Cells were kept on ice after for 10 minutes after the electroporation. Cells were collected, counted, and cultured in macrophage culture media for further use. […]
Viability was assessed using Live/Dead Fixable Aqua Dead Cell Staining Kit (Thermo) or similar reagents. Additionally, cell viability was assessed using the NC-200 (Chemometec).
Donor macrophages (HC153444) were differentiated from CD14+ monocytes and the macrophages were transfected with mRNA encoding a CAR (CAR mRNA) using electroporation or transfection. mRNA encoding a CAR comprising a HER2 extracellular domain and a CD3zeta intracellular domain was used. CAR expression and cell viability were detected by FACS on day 1.
Human macrophages were electroporated with HER2 CAR mRNA comprising m6AGCap1 and PsU modifications. […] CAR expression and M1 marker expression were measured on days 2 and 7 after transfection. […]

human macrophages [2] = test: CAR expression on macrophages by flow cytometry; type: cell-based; conditions: for CAR expression: versus control media, IFN-α or IFN-γ
[3] = test system: HER2+ breast cancer cells (CRL2351); test: Co-culture cancer cell killing assay with CAR macrophages (Incucyte); type: cell-based, human
Description: Target cells such as HER2+ breast cancer cells (CRL2351) or HER2+ ovarian cancer cells stably expressing NucLight Green GFP (Sartorious #4475) were used. Additional cell lines were evaluated that expressed the cognate antigen targeted by the CAR, as described within below. CAR macrophages were co-cultured with target cells at indicated ratios for indicated periods of time. To quantify an anti-tumor effect in vitro, the relative numbers of target cancer cells were measured using the Incucyte live imaging microscope (Sartorius) which monitors the green fluorescent intensity of cultured wells roughly every one hour. The anti-tumor activity of CAR macrophages was compared to control macrophages or target cells alone. Graphpad Prism was used to graph data and perform statistical analysis.
(§1) After the transfection of CAR mRNA, macrophages were cultured in macrophage culture media with 10-300 ng/mL of recombinant human IFN-α, IFN-β, or IFN-γ (peprotech) for 4 to 24 hours, as indicated. IFN containing media was washed off after the indicated time. IFN-primed CAR macrophages were used for further analysis.
Macrophages were treated with 0-10 µM sunitinib (an RNAse-L inhibitor) for 2 hours prior to mRNA electroporation or transfection. The level of expression and persistence of expression of the encoded transgene was assessed using methods described above.
Human macrophages were differentiated from CD14+ monocytes and the macrophages were electroporated with mRNA encoding a HER2 CAR (CAR mRNA). […] CRL2351 cell growth was monitored every four hours by its fluorescence.
Human macrophages were electroporated with HER2 CAR mRNA comprising m6AGCap1 and PsU modifications. […] CAR expression and M1 marker expression were measured on days 2 and 7 after transfection. […] Cancer cell growth was monitored via its fluorescence on an Incucyte live imaging microscope every four hours. […]
Five different mRNA modifications were also tested to determine if interferon treatment differentially affected macrophages transfected with mRNA comprising different modifications. […] CAR expression and M1 markers were detected by Flow Cytometry (Attune) on day four after electroporation. […] Cancer cell growth was monitored via its fluorescence on an Incucyte live imaging microscope every four hours.
To evaluate the anti-tumor function of macrophages transfected with mRNA encoding a HER2 CAR with or without priming with IFN-β, untransduced (UTD) or CAR macrophages were primed with 0, 3, 10, 30, or 100 ng/mL IFN-β for 4 hours or 20 hours. These effector cells were then co-cultured with the HER2+ breast cancer cell line CRL2351-GFP at an effector to target ratio of 3:1 or 1.5:1 and anti-tumor activity was measured based on GFP expression using an Incucyte live imaging microscope. […]

human macrophages [4] = test: M1/M2 marker expression on CAR macrophages by flow cytometry; type: cell-based
Description: as §1
(§2) M1/M2 markers on primary human macrophages were detected with the following panel: Anti-CD11B PE (Biolegend, 301306), Anti-CD80 BV605 (Biolegend, 305225), Anti-CD86 BV711 (Biolegend, 305440), Anti CD206 BV421 (Biolegend, 321126), Anti CD163 APC-CY7 (Biolegend, 333622), anti HLA-DR BV785 (Biolegend, 307642), Anti HLA ABC PE/CY7 (Biolegend, 311430) and Live/Dead Fixable Aqua Dead Cell Stain Kit. Cytokine production (IL12, IFN-γ, TNF-α, IL6, IL8, IL1b, MCP-1, IL10, IL4, IL13, and other human cytokines) was evaluated in supernatant collected from macrophages (control or CAR) treated as described below using the MSD instrument per manufacturers recommendations (Meso Scale Discovery). In some cases, macrophages were co-cultured with antigen-bearing target cells at indicated effector to target ratios.
Human macrophages were electroporated with HER2 CAR mRNA comprising m6AGCap1 and PsU modifications. Cells were cultured with cytokines that induce an M1 phenotype such as IFN-alpha, IFN-beta, IFN-gamma, IFN-gamma plus lipopolysaccharide (LPS), TNF-alpha, IL-6 or a STING ligand (STING-L) for up to 48 hours and then cytokines were washed off and fresh media was added. CAR expression and M1 marker expression were measured on days 2 and 7 after transfection. Fluorescent labeled HER2+ breast cancer cells (CRL2351) were co-cultured with HER2 CAR macrophages two days after the macrophages were transfected. Cancer cell growth was monitored via its fluorescence on an Incucyte live imaging microscope every four hours. The Effector (CAR macrophage) to Target (cancer cell) ratio was 5:1.
In order to validate the effect of IFN-β treatment on improved CAR expression, and to optimize the IFN-β concentration, macrophages transfected with M6AGCap1/PsU modified mRNA were treated with 0, 3, 10, 30, or 100 ng/mL IFN-β for 4 hours and the viability, CAR percentage, and CAR MFI were evaluated on day 4 and day 7 post electroporation.
Given that macrophage phenotype is considered plastic, and immunosuppressive cytokines such as IL-10 are known to induce an M2 phenotype, the impact of IL-10 treatment on IFN-β treated or untreated HER2 CAR mRNA transfected macrophages was evaluated.
Additional studies were performed to determine if treatment with interferons could further improve CAR mRNA persistence in macrophages and if CAR macrophage functionality could be extended. Human macrophages were electroporated with 300 nM CAR mRNA comprising m6AGCap1 and PsU modifications. Cells were cultured with 20 ng/mL IFNs for 24 hours and then the cells were washed to remove cytokines. CAR expression was detected by Flow Cytometry (Attune) on day 2 after transfection. Cells were then co-cultured with a Nuc-Light labeled, HER2+ breast cancer cell line (CRL2351) at the Effector to Target ratio of 3:1. Cancer cell growth was monitored via its fluorescence on an Incucyte live imaging microscope. CAR expression and M1 markers in macrophages were detected by Flow Cytometry (Attune) on day 7 after transfection.

human macrophages [5] = test: Cytokine secretion of CAR macrophages co-cultured with HER2+ breast cancer cells (MSD); type: cell-based; conditions: supernatant 48 hours after co-culture, E:T 3:1
Text: as §2
To evaluate whether interferon treatment of macrophages improved other anti-tumor functions, the cytokine secretion of interferon treated or untreated mRNA transfected HER2 CAR macrophages after co-culture with HER2+ breast cancer cells was evaluated. Human macrophages were electroporated with 150 nM HER2 CAR mRNA comprising m6AGCap1 and PsU modifications. […] Supernatant was collected 48 hours after the cancer cells and macrophages were co-cultured and cytokine levels were measured using a Meso Scale Discovery (MSD) instrument.

[6] = 48 hours and 7 days post-treatment with IL-10
[7] = mRNA transfected CAR macrophages

IFN-β: recombinant human IFN-β (peprotech), cytokine used to prime CAR macrophages
cell viability (human macrophages [1]): increased cell viability
effect on CAR expression by human macrophages (human macrophages [2]; 0, 3, 10, 30 or 100 ng/mL for 4 hours, day 4 and day 7): dose-dependent effect
CAR expression (human macrophages [2]; day 2): higher CAR expression
number of CARs expressed per cell based on CAR MFI (human macrophages [2]; day 4, all mRNA modifications evaluated): marked increase
percentage of cells expressing CAR (human macrophages [2]; day 4, all modifications): modestly improved
HER2 CAR expression (human macrophages [2]; day 7): highest level of CAR by a significant margin
CAR expression rate (human macrophages [2]; day 7, m6AGCap1/PsU mRNA, versus not treated with IFN-β): significantly improved
CAR expression (human macrophages [2]; day 7): higher CAR expression
cancer cell killing, comparison of interferons ([3]; M6AGCap1/PsU mRNA, IFN-alpha, beta or gamma): best cancer cell killing
cancer killing (decrease in tumor growth) ([3]; killing assay 7 days post-electroporation): highest level of cancer killing
anti-tumor activity of CAR macrophages ([3]; priming 0-100 ng/mL for 4 or 20 hours, E:T 3:1 or 1.5:1): improved ability for CAR macrophages to kill cancer cells
anti-tumor activity of CAR macrophages across mRNA modifications ([3]; with or without IFN-β treatment): improved anti-tumor activity for all CAR macrophages except those transfected with 5moU mRNA
induction of M1 markers CD80, CD86, and HLA-DR (human macrophages [4]; 0, 3, 10, 30 or 100 ng/mL): dose-dependent
M1 marker CD86 after IL-10 treatment (human macrophages [4]; [6]): retaining expression of the M1 marker CD86
M2 marker CD163 after IL-10 treatment (human macrophages [4]; [6]): did not express the M2 marker CD163
M1 phenotype, comparison of the interferons evaluated (human macrophages [4]; CD86 expression): strongest M1 phenotype
persistence of M1 phenotype post treatment (human macrophages [4]; CD86 expression): at least 7 days
response to other M2 inducing factors (human macrophages [4]; IFN-β primed CAR macrophages): resisted other M2 inducing factors
expression of M1 markers CD80, CD86 and HLA-DR (human macrophages [4]; day 7, relative to no interferon): increased
M1 phenotype based on CD86 expression (human macrophages [4]; [7]): induction of an M1 phenotype
M2 markers based on CD163 expression (human macrophages [4]; [7]): reduction of M2 markers
cytokine secretion (human macrophages [5]): increased secretion of the cytokines IL-6, IL-8 and TNFα
